Results as given in US20250134869A1, “Pyrrolo[2,3-d]pyrimidinyl, Pyrrolo[2,3-b]pyrazinyl and Pyrrolo[2,3-d]pyridinyl Acryla-mides” (Pfizer Inc, priority 2021, published 2025).
Where two headings read alike, the source gives them in different places.

Chains of the proteins cited; added tags and fusions are not shown.
UniProt P52333, whole entry, species assumed: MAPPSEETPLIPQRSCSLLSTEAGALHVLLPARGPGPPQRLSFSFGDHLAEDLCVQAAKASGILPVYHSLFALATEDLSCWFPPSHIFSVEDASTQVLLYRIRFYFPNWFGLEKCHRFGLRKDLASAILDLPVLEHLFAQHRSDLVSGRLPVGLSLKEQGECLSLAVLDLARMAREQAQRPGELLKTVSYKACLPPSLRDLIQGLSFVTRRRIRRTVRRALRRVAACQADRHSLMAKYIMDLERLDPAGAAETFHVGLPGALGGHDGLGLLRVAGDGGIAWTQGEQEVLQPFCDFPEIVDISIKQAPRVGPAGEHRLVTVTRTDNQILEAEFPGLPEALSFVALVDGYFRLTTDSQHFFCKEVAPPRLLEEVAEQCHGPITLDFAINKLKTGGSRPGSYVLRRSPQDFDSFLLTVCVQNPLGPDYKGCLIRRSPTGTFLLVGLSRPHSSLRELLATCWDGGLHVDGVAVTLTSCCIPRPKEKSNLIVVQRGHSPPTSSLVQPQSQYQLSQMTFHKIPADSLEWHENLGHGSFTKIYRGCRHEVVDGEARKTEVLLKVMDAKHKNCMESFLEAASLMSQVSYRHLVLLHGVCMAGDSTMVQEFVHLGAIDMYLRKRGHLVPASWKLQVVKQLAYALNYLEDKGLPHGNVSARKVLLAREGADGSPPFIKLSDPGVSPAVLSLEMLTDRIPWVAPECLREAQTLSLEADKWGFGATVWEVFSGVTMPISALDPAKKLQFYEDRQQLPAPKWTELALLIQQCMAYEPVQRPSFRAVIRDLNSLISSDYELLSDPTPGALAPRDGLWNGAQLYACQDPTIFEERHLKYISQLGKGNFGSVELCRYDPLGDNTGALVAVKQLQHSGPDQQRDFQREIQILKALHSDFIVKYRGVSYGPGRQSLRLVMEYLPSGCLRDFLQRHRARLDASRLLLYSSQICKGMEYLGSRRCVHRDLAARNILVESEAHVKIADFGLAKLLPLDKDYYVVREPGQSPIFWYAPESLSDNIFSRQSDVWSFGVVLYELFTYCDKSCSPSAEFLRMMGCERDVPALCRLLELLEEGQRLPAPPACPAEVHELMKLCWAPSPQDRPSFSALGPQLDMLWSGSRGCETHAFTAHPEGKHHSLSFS

Target: JAK3 enzyme (Homo sapiens (Human), UniProt P52333)
Test: JAK Caliper Enzyme Assay at 4 μM or 1 mM ATP
Type: biochemical
Experimental: JAK Caliper Enzyme Assay at […] or 1 mM ATP
Test article was solubilized in dimethyl sulfoxide (DMSO) to a stock concentration of 30 mM. An 11-point half log dilution series was created in DMSO with a top concentration of 600 μM. […] The compound plates were diluted 1 to 60 resulting in a top final assay compound concentration of 10 μM and a 2% DMSO concentration.
Test article and assay controls were added to a 384-well plate. Reaction mixtures contained 20 mM HEPES, pH 7.4, 10 mM magnesium chloride, 0.01% bovine serum albumin (BSA), 0.0005% Tween […] or 1 mM ATP and […] peptide substrate. […] The assays were initiated by the addition 1 nM JAK3 enzyme and were incubated at room temperature 75 minutes for JAK3. Enzyme concentrations and incubation times were optimized for each new enzyme preps and were modified slightly over time to ensure 20%-30% phosphorylation. The assays were stopped with a final concentration of 10 mM EDTA, 0.1% Coating Reagent and 100 mM HEPES, pH=7.4. The assay plates were placed on a Caliper Life Science Lab Chip 3000 (LC3000) instrument, and each well was sampled using appropriate separation conditions to measure the unphosphorylated and phosphorylated peptide.

[1] = read-out: JAK3 (1 mM ATP) IC50, 1 mM ATP
[2] = read-out: JAK3 (4 μM ATP) IC50, 4 μM ATP

IC50 [1] [nM]	IC50 [2] [nM]	Structure (SMILES)
1390	–	C=CC(=O)N1CCC(Nc2cnc3[nH]cc(C(=O)NC(C)(C)C)c3n2)C[C@@H]1C (mixture of isomers) [Example 340]
2230	–	C=CC(=O)N1CCN(c2cnc3[nH]ccc3n2)CC1 [Example 172, 1-[4-(5H-pyrrolo[2,3-b]pyrazin-2-yl)piperazin-1-yl]prop-2-en-1-one]
–	3490	C/C=C/C(=O)N1CCC[C@@H](Nc2ncnc3[nH]cc(CCO)c23)C1 [Example 151, (2E)-1-[(3R)-3-{[5-(2-hydroxyethyl)-7H-pyrrolo[2,3-d]pyrimidin-4-yl]amino]piperidin-1-yl]but-2-en-1-one]
–	4750	C=C(CN(C)C)C(=O)N1CCC[C@@H](Nc2ncnc3[nH]ccc23)C1 [Example 92, 2-[(dimethylamino)methyl]-1-[(3R)-3-(7H-pyrrolo[2,3-d]pyrimidin-4-ylamino)piperidin-1-yl]prop-2-en-1-one]
3810	–	C=CC(=O)N1CCC[C@@H](Nc2ncnc3[nH]cc(-c4ccc(OCC)nc4)c23)C1 [Example 33, 1-[(3R)-3-{[5-(6-ethoxypyridin-3-yl)-7H-pyrrolo[2,3-d]pyrimidin-4-yl]amino}piperidin-1-yl]prop-2-en-1-one]
2940	–	O=C(/C=C/C(F)F)N1CC[C@@H]2CCN(c3ncnc4[nH]ccc34)[C@@H]2C1 [Example 80, (2E)-4,4-difluoro-1-[(3aS,7aS)-1-(7H-pyrrolo[2,3-d]pyrimidin-4-yl)octahydro-6H-pyrrolo[2,3-c]pyrdin-6-yl]but-2-en-1-one]
3750	–	O=C(/C=C/C(F)(F)F)N1CC[C@@H]2CCN(c3ncnc4[nH]ccc34)[C@@H]2C1 [Example 81, (2E)-4,4,4-trifluoro-1-[(3aS,7aS)-1-(7H-pyrrolo[2,3-d]pyrimidin-4-yl)octahydro-6H-pyrrolo[2,3-c]pyridin-6-yl]but-2-en-1-one]
–	2740	CC(C)=C(C#N)C(=O)N1CCCC(Nc2ncnc3[nH]ccc23)C1 (stereo not drawn) [Example 96, 3-methyl-2-{[3-(7H-pyrrolo[2,3-d]pyrimidin-4-ylamino)piperidin-1-yl]carbonyl}but-2-enenitrile]
3360	–	C=CC(=O)N1CCC(Oc2cnc3[nH]cc(-c4cnc(N5CCOCC5)nc4)c3n2)CC1 [Example 223, 1-[4-({7-[2-(morpholin-4-yl)pyrimidin-5-yl]-5H-pyrrolo[2,3-b]pyrazin-2-yl}oxy)piperidin-1-yl]prop-2-en-1-one]
4200	–	C=CC(=O)N1CC2(CCN(c3cnc4[nH]cc(C(=O)NC(C)C)c4n3)C2)C1 [Example 296, 2-(2-acryloyl-2,6-diazaspiro[3.4]oct-6-yl)-N-(propan-2-yl)-5H-pyrrolo[2,3-b]pyrazine-7-carboxamide]
1010	–	C=CC(=O)N(C)[C@@H]1CCN(c2cnc3[nH]cc(C(=O)NC(C)C)c3n2)C1 [Example 190, 2-{(3R)-3-[acryloyl(methyl)amino]pyrrolidin-1-yl}-N-(propan-2-yl)-5H-pyrrolo[2,3-b]pyrazine-7-carboxamide]
1020	–	C=CC(=O)N[C@@H]1CCN(c2cnc3[nH]cc(C(=O)NC(C)C)c3n2)C1 [Example 181, 2-[(3R)-3-(acryloylamino)pyrrolidin-1-yl]-N-(propan-2-yl)-5H-pyrrolo[2,3-b]pyrazine-7-carboxamide]
1480	–	C=CC(=O)N1CCC(Oc2cnc3[nH]cc(-c4c(C)nn(C)c4C)c3n2)CC1 [Example 221, 1-(4-{[7-(1,3,5-trimethyl-1H-pyrazol-4-yl)-5H-pyrrolo[2,3-b]pyrazin-2-yl]oxy}piperidin-1-yl)prop-2-en-1-one]
1960	–	C=CC(=O)N1CC[C@@H]2CCN(c3nc(N)nc4[nH]ccc34)[C@@H]2C1 [Example 73, 1-[(3aS,7aS)-1-(2-Amino-7H-pyrrolo[2,3-d]pyrimidin-4-yl)octahydro-6H-pyrrolo[2,3-c]pyridin-6-yl]prop-2-en-1-one]

Structure (SMILES)	IC50 [1] [nM]	IC50 [2] [nM]
C=CC(=O)NC1CCN(c2cnc3[nH]cc(C(=O)NC(C)C)c3n2)C1 (stereo not drawn) [Example 195, 2-[3-(acryloylamino)pyrrolidin-1-yl]-N-(propan-2-yl)-5H-pyrrolo[2,3-b]pyrazine-7-carboxamide]	970	–
